{"source": "patent US10889563B2", "about": "“Deoxyuridine triphosphatase inhibitors” (University of Southern California, priority 2013, dated 2021)", "key": {"HCT116 cells": {"test_system": "HCT116 cells", "test": "Colony formation assay, HCT116", "type": "cell-based", "description": "Colony forming assay showing the ability of colon (SW620, HCT 116), non-small cell lung (A549, H460, H1299 and H358) and breast (MCF7) cancer cells to survive and proliferate following transient 24 hour exposure to single agent PCI 1013, FUdR and combinations. Specifically, cells were seeded at densities between 50 and 100 cells/well in 24-well plates. Twenty-four hours later, cells were treated with increasing concentrations of PCI 10213, a fixed dose of FUdR and combinations of these. After 24 hours, drug was removed, cells were rinsed and allowed to outgrow for 10-14 days. At the conclusion of the outgrowth, cells were fixed in 60% ice cold methanol and stained with 0.1% crystal violet, scanned and counted. Data is presented as percentage of untreated controls (mean±SD). Fraction affected and combination indexes were calculated according to the method of Chou and Talalay where <1 is indicative of a synergistic drug interaction. […]\nIn colorectal cancer cells, concentrations of PCI 10213 ranging from 3.1 μmol/L to 50 μmol/L were combined with 0.5 μmol/L FUdR in HCT116 cells and 1 μmol/L FUdR in SW620 cells."}, "H1299 cells": {"test_system": "H1299 cells", "test": "MTS growth inhibition assay, H1299", "settings": "H1299, 72 hours, up to 12.5 μmol/L"}}, "data": [{"compound": "C[C@@H](NS(=O)(=O)CC/C=C/CC1CCC(=O)NC1=O)c1cccc(OCC2CC2)c1", "note": "(mixture of isomers) [PCI 10213]", "values": [{"measurement": "colonies formed, combination with FUdR", "setting": "HCT116 cells; HCT116, 0.78 to 12.5 μmol/L compound plus fixed 0.5 μmol/L FUdR (Example 23)", "value": "significant reductions in colonies formed when combined with FUdR at concentrations of 6.25 μmol/L and greater"}, {"measurement": "number of colonies formed, compound alone", "setting": "HCT116 cells; HCT116, 0.78 to 12.5 μmol/L single agent (Example 23)", "value": "no significant effects on the number of colonies formed"}, {"measurement": "single agent activity", "setting": "H1299 cells", "value": "modest single agent activity"}]}, {"compound": "C[C@@H](NS(=O)(=O)CC/C=C/CC1SC(=O)NC1=O)c1cccc(OCC2CC2)c1", "note": "(some centres unmarked) [PCI 10214]", "values": [{"measurement": "single agent activity", "setting": "H1299 cells", "value": "modest single agent activity"}]}, {"compound": "C[C@@H](NS(=O)(=O)CC/C=C/Cn1ccc(=O)[nH]c1=O)c1cccc(OCC2CC2)c1", "note": "[PCI 10216, reference compound]", "values": [{"measurement": "single agent activity", "setting": "H1299 cells", "value": "modest single agent activity"}]}]}
